Read-outs that look alike come from different tables or passages of the source.

The subject of the experiment is Mycobacterium tuberculosis 607. To be noted: Examples 1-4, test microorganism not printed at the place.

Take `Cc1c(N)nc(C(CC(N)=O)NCC(N)C(N)=O)nc1C(=O)NC(C(=O)NC(C)C(O)C(C)C(=O)NC(C(=O)NCCc1nc(-c2nc(C(=O)NCCCN)cs2)cs1)C(C)O)C(OC1OC(CO)C(O)C(O)C1OC1OC(CO)C(O)C(OC(N)=O)C1O)c1cnc[nH]1.Cl` (stereo not shown) [copper-free 3-aminopropylamino-bleomycin hydrochloride]: the “potency of isolated product (text of the examples)” value (“potency of isolated product” for short) is recorded as 1,850 mcg/mg (hydrochloride) and 1,850 mcg/mg (listed as copper-free 3-aminopropylaminobleomycin hydrochloride, hydrochloride). Turning to `Cc1c(N)nc(C(CC(N)=O)NCC(N)C(N)=O)nc1C(=O)NC(C(=O)NC(C)C(O)C(C)C(=O)NC(C(=O)NCCc1nc(-c2nc(C(=O)NCCCN)cs2)cs1)C(C)O)C(OC1OC(CO)C(O)C(O)C1OC1OC(CO)C(O)C(OC(N)=O)C1O)c1cnc[nH]1.Cl` (stereo not shown) [Compound 5, 3-aminopropylamino-bleomycin], for the setting “listed as 3-aminopropylamino-bleomycin hydrochloride”, the “potency of isolated product” value is listed as 1,934 mcg/mg. Take `Cc1c(N)nc(C(CC(N)=O)NCC(N)C(N)=O)nc1C(=O)NC(C(=O)NC(C)C(O)C(C)C(=O)NC(C(=O)NCCc1nc(-c2nc(C(=O)NCCCN)cs2)cs1)C(C)O)C(OC1OC(CO)C(O)C(O)C1OC1OC(CO)C(O)C(OC(N)=O)C1O)c1cnc[nH]1.O=S(=O)(O)O` (stereo not shown) [copper-free 3-aminopropylamino-bleomycin sulfate]: the “potency of isolated product” value is on record as 1,850 mcg/mg.

Values taken from patent publication USRE30451E, “Novel process for producing antibiotics bleomycin” (priority 1969, dated 1980).
